Measured values taken from patent publication US12264158B2, “Protein kinase MKK4 inhibitors for promoting liver regeneration or reducing or preventing hepatocyte death” (HEPAREGENIX GMBH, priority 2018, dated 2025).

What was measured:
[1] = molecular target: T1, MKK4-MEKK2 mix (Homo sapiens, UniProt P45985); assay: Radiometric protein kinase assay, MEKK2 dependent MKK4 activation (cascade); format: biochemical; conditions: substrate JNK1 KRKR, ATP 0.2 μM, read-out: Cascade, potency derived from IC50-values
T1 construct: MEKK2, recombinant, active: ProQinase product #0583-0000-1
T1 sequence (P45985 2-399): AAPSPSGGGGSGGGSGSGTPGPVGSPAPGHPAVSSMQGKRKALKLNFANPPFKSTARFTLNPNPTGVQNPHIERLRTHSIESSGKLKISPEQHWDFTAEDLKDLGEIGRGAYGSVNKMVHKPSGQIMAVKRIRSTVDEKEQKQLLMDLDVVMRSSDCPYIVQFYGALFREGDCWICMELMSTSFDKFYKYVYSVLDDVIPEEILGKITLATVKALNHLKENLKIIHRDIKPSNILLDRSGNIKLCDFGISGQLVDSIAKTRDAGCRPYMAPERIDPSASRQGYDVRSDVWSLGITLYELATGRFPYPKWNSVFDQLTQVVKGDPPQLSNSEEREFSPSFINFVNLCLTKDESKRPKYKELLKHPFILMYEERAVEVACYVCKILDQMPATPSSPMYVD
Protocol: The activation step is done in 50 mM HEPES pH 7.5, 50 mM NaCl, 3.8 mM MgCl2, 2.5 mM DTT, 10% (v/v) glycerol. Final DMSO concentration is 1%. The activation mixture is pipetted in the following order • 2.5 μl compound in 4% DMSO • 2.5 μl ATP/MgCl2 mix • 5 μl premixed kinase solution MKK4:MEKK2 10:1 (w/w)
Protein concentrations in the activation mix are 1 μM MKK4 and 50 nM MEKK2.
(§1) A radiometric protein kinase assay was used for measuring the kinase activity of the respective protein kinases. All kinase assays were performed in 96-well polypropylene plates. After the reactions were stopped, the assay mixtures were transferred to 96-well MSFC filter-plates (Millipore). The reaction mix was passed through the filter membrane by aspiration, the membrane was washed 3 times with 150 mM H3PO4, once with ethanol, dried and liquid scintillation cocktail was added. Radioactivity was determined by counting of the samples in a Microbeta multiwell scintillation counter (Wallac).

[2] = molecular target: T2, MKK4 active (Homo sapiens, UniProt P45985); assay: Radiometric protein kinase assay, MKK4 active; format: biochemical
T2 construct: purchased ProQinase #0948-0000-1
T2 sequence (P45985 1-399): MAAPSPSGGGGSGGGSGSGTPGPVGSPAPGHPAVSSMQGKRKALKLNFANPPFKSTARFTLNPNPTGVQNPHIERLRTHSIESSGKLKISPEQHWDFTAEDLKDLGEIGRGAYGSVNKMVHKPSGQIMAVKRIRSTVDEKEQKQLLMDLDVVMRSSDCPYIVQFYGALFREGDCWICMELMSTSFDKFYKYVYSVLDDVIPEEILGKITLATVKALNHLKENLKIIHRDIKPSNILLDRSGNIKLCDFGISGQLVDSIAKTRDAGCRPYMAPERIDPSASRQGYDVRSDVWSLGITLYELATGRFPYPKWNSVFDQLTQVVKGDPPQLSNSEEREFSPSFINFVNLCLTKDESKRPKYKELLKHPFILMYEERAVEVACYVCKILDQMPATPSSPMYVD
Protocol: as §1

[3] = molecular target: T3, MKK7 (Homo sapiens, UniProt O14733); assay: KINOMEscan competition binding assay, selectivity against off-target MKK7; conditions: concentration of 100 nM
T3 construct: M1/R419; host or cells: HEK-293
T3 sequence (O14733 1-419): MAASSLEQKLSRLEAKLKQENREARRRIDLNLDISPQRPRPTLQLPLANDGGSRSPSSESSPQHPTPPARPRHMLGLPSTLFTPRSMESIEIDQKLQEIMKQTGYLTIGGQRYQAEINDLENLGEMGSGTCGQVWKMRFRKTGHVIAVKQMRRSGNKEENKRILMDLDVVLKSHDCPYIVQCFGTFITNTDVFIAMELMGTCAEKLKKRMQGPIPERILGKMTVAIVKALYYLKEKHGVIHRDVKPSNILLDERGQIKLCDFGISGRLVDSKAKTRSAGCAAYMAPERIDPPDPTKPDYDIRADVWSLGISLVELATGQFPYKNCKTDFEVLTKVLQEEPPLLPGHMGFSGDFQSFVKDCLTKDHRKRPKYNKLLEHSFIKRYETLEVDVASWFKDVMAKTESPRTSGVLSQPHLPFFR
Protocol: (§2) The assay was performed by combining three components: DNA-tagged kinase; immobilized ligand; and a test compound. The ability of the test compound to compete with the immobilized ligand was measured via quantitative PCR of the DNA tag. The technology is described in detail in Fabian, M. A. et al. A small molecule-kinase interaction map for clinical kinase inhibitors. Nat. […] M. W. et al. A quantitative analysis of kinase inhibitor selectivity, Nat.
(§3) For investigation of the affinity to MKK4, MKK7 and JNK1, the kinases were produced in HEK-293 cells and subsequently tagged with DNA for qPCR detection. […] The liganded beads were blocked with excess biotin and washed with blocking buffer (SEABLOCK™ (Pierce), 1% BSA, 0.05% TWEEN®20, 1 mM DTT) to remove unbound ligand and to reduce nonspecific binding. […] All reactions were performed in polystyrene 96-well plates in a final volume of 0.135 mL. […] The kinase concentration in the eluates was measured by qPCR.
(§4) The test compounds were provided as 10 mM stock solutions. The test solutions at indicated final concentrations were prepared at DiscoverX.

[4] = molecular target: T4, MKK4 (Homo sapiens, UniProt P45985); assay: KINOMEscan competition binding assay, MKK4 potency; conditions: concentration of 100 nM
T4 construct: S84/D399; host or cells: HEK-293
T4 sequence (P45985 84-399): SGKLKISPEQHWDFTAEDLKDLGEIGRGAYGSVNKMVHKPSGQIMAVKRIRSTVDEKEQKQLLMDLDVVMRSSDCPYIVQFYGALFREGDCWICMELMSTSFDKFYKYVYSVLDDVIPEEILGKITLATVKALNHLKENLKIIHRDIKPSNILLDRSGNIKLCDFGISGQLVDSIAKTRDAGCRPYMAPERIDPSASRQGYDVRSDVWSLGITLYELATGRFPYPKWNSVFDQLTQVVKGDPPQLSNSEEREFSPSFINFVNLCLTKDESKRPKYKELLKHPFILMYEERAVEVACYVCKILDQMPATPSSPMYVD
Protocol: as §2, §3, §4

## CCCS(=O)(=O)Nc1ccc(F)c(C(=O)c2n[nH]c3ncc(-c4ccc(NS(C)(=O)=O)cc4)cc23)c1F [Example 51g, N-(2,4-difluoro-3-(5-(4-(methylsulfonamido)phenyl)-1H-pyrazolo[3,4-b]pyridine-3-carbonyl)phenyl)propane-1-sulfonamide]
[1]
  IC50: 1 to 10 µM
[2]
  IC50: 500 to 1000 nM

## CCCS(=O)(=O)Nc1ccc(F)c(C(O)c2n[nH]c3ncc(-c4ccc(Cl)cc4)cc23)c1F (centres unmarked) [Example 49, N-(3-((5-(4-chlorophenyl)-1H-pyrazolo[3,4-b]pyridin-3-yl)(hydroxy)methyl)-2,4-difluorophenyl)propane-1-sulfonamide]
[3]
  Selectivity vs. MKK7, ratio PoC(MKK7)/PoC(MKK4): O (PoC(MKK7)/PoC(MKK4) < 3)
[4]
  MKK4, residual percent of control binding (PoC): O (PoC ≥ 30)

## CS(=O)(=O)Nc1ccc(F)c(C(=O)c2n[nH]c3ncc(-c4ccc(S(N)(=O)=O)cc4)cc23)c1F [Example 51b, 4-(3-(2,6-difluoro-3-(methylsulfonamido)benzoyl)-1H-pyrazolo[3,4-b]pyridin-5-yl) benzenesulfonamide]
[1]
  IC50: 1 to 10 µM
[2]
  IC50: 500 to 1000 nM

## CCCS(=O)(=O)Nc1ccc(F)c(C(=O)Nc2n[nH]c3ncc(-c4ccc(Cl)cc4)cc23)c1F [Example 44, N-(5-(4-chlorophenyl)-1H-pyrazolo[3,4-b]pyridin-3-yl)-2,6-difluoro-3-(propylsulfonamido)benzamide]
[3]
  Selectivity vs. MKK7, ratio PoC(MKK7)/PoC(MKK4): O (PoC(MKK7)/PoC(MKK4) < 3)
[4]
  MKK4, residual percent of control binding (PoC): O (PoC ≥ 30)
